Values joined by “and” are separate entries in the source; they are usually repeats but may differ in a detail not shown here. Equal entries are not always repeated. Where two headings read alike, the source gives them in different places.
Legend:
PDO UME061 = assay: PDO viability assay (CellTiter-Glo, 72 h); assay type: cell-based, human
Method: (§1) Primary patient-derived PDAC organoid (PDO) experiments were performed in the laboratories of Prof. Maximilian Reichert (University Hospital of the TU Munich, Germany, PDO set 1: B250, B535, B678) and Prof. Jens T. Siveke (University Hospital Essen, Germany; PDO set 2: UME008, UME012, UME051, UME053, UME060, UME061). PDOs were generated from surgical resection, EUS-guided fine needle biopsy (EUS-FNB), or ascites (Appendix Table S2). Surgical specimens were first minced with a sterile scalpel and subsequently washed with Anti-Anti solution and washing medium (PDO set 1), or vice versa (PDO set 2; Appendix Table S3). Biopsy samples were directly washed with an Anti-Anti solution and washing medium. Samples were digested using 1 ml of digestion medium at 37 °C while shaking, and the enzymatic reaction was stopped by adding 15 ml of washing medium (Appendix Table S3). […]
(§2) For viability assays in PDOs, confluent organoids were removed from medium, and Matrigel was dissolved by adding 200 μl (PDO set 1) or 2 ml (PDO set 2) of Cell Recovery Solution (Corning), and additionally 500 μl of DPBS (PDO set 1 only). […] After 72 h, cell viability was measured using the CellTiter-Glo Luminescent Cell Viability Assay (Promega) diluted 1:5 in the final volume of the well. […]

AsPC-1 cells [1] = assay: Cell proliferation assay, chemodrug + ATR inhibitor (Incucyte confluence, 72 h); conditions: for EC50: Homo sapiens;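 on all read-outs here: underlying read-out for every value is AsPC-1 confluence after 72 h incubation at 37 °C and 5% CO2, divided by that well's starting confluence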
PDO UME053 = assay: PDO viability assay (CellTiter-Glo, 72 h); assay type: cell-based, human; design: Curve top: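 fraction of plate-wise median vehicle signal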; conditions: for EC50: Homo sapiens
Method: Primary patient-derived PDAC organoid (PDO) experiments were performed in the laboratories of Prof. Maximilian Reichert (University Hospital of the TU Munich, Germany, PDO set 1: B250, B535, B678) and Prof. Jens T. Siveke (University Hospital Essen, Germany; PDO set 2: UME008, UME012, UME051, UME053, UME060, UME061). PDOs were generated from surgical resection, EUS-guided fine needle biopsy (EUS-FNB), or ascites (Appendix Table S2). Surgical specimens were first minced with a sterile scalpel and subsequently washed with Anti-Anti solution and washing medium (PDO set 1), or vice versa (PDO set 2; Appendix Table S3). Biopsy samples were directly washed with an Anti-Anti solution and washing medium. Samples were digested using 1 ml of digestion medium at 37 °C while shaking, and the enzymatic reaction was stopped by adding 15 ml of washing medium (Appendix Table S3). If samples of PDO set 1 were blood-stained, tissue pellets were first incubated with ACK lysing buffer/red blood cells lysis buffer (Thermo Fisher Scientific) for 5 min and then digested using TrypLE (Thermo Fisher Scientific). The reversed procedure was applied for blood-stained samples of PDO set 2. For PDO generation from ascites, the material was first spun down at 500 × g for 5 min. Then, washing medium was added and the suspension was centrifuged at 300 × g for 5 min. If the pellet was blood-stained, ACK lysis buffer was added and incubated at room temperature.
For viability assays in PDOs, confluent organoids were removed from medium, and Matrigel was dissolved by adding 200 μl (PDO set 1) or 2 ml (PDO set 2) of Cell Recovery Solution (Corning), and additionally 500 μl of DPBS (PDO set 1 only). Samples were transferred into a falcon and incubated on ice for 30 min, followed by centrifugation at 300 × g at 4 °C for 5 min (after adding 10 ml washing medium for PDO set 2). Subsequently, TrypLE Express Enzyme (Thermo Fisher) was added to cell pellets and incubated for 2 × 5 min at 37 °C. The enzymatic reaction was quenched by DPBS (PDO set 1) or washing medium (PDO set 2), and samples were washed by centrifugation at 300 × g at 4 °C for 5 min. Five hundred cells/well were seeded in 384-well plates (Corning) in 50 μl of PDO medium containing 10% Matrigel. To allow PDO generation, cells were incubated for 4 days at 37 °C and 5% CO2. […] After 72 h, cell viability was measured using the CellTiter-Glo Luminescent Cell Viability Assay (Promega) diluted 1:5 in the final volume of the well. After 20 min of incubation at room temperature under gentle shaking, the acquisition was performed in the microplate reader VantaSTAR (BMG Labtech) using 3000 gain for the amplification measurement of a detected signal (PDO set 1) or the Spark Multimode microplate reader (TECAN) at 800 ms integration time (PDO set 2).

13 PDAC cell lines = assay: Phenotypic drug combination viability screen (ATPlite, 72 h), cell line panel; assay type: cell-based, human
Method: (§3) Cell viability was assessed by measuring ATP levels to indicate metabolic activity.
(§4) Afterward, small amounts were transferred to 384-well intermediate plates (Greiner Bio-One GmbH, Germany). […] For drug combination screening, 1000 to 5000 cells were seeded into 384-well plates (CulturPlate™, Perkin Elmer, MA, USA) using a Multidrop™ Combi Reagent Dispenser (Thermo Scientific, MA, USA) in 50 µl medium per well 24 h prior to drug treatment (seeding densities see Appendix Table S1). […] The final DMSO concentration in each well was 0.2%. […] Eight wells per plate without library drug served as negative controls, and sixteen wells per plate containing 5 µM Staurosporine served as positive controls. Control plates not containing any drug were used to correct for incubation effects, and data quality was assessed by calculation of Z-prime of positive and negative controls according to1 Z-prime=1−3SDpos+3SDneg/[…] where SD is the standard deviation. […] Dose–response curves from the experimental and hypothetical data were compared, and shifts in AUC were used to describe combination effects (AUC∆ = AUChypothetical − AUCexperimental). […] Only combinations with R^2 > 0.8 in both conditions were considered in the synergy analysis.

AsPC-1 cells [2] = assay: Drug combination viability screen (ATPlite, 72 h); assay type: cell-based, human; design: EC50_FC_GEM low / EC50_FC_GEM high: unit not given beside the values
Method: as §3, §4

[3] = tested on: nine PDAC patient-derived organoids (PDOs); assay: PDO viability assay (CellTiter-Glo, 72 h), panel; assay type: cell-based, human
Method: as §1, §2

p-sites in Capan-1 cells = assay: Phosphoproteomics GEM + Elimusertib vs. GEM (non-decryptM); assay type: cell-based, human
Method: (§5) Cell culture medium was replaced 24 h after seeding. […] For time point 0, AsPC-1 cells were treated with a vehicle and lysed immediately. The final DMSO concentration in all experiments was 0.2%.
(§6) Oxidized methionine, N-terminal acetylation, and phosphorylation (STY) were set as variable modification, and cysteine carbamidomethylation was set as fixed modification. All other search parameters were kept as default, except for protein FDR which was set to 1. […] Potential contaminants and reversed hits were removed, and only peptides with unambiguously assigned phosphorylation sites with a localization probability of > 0.75 were retained. To acquire site-level quantification values, the corrected reporter ion intensities of peptides containing the same phosphosite(s) were summed up. Median centering of corrected TMT reporter channel intensities was performed. […] Channel 11 served as a vehicle for the chemodrug treatment and was not subjected to curve fitting. Instead, row-wise normalization was performed across all four TMT-batches using the medians of channels 10 and 11. […] Phosphoproteomic experiments in six additional cell lines (not dose-resolved) were median-centered within each TMT-batch, prior to row-wise normalization across all TMT-batches using a common channel filled with AsPC-1 lysate (Appendix Table S5). […]

p-sites in Dan-G cells = assay: as above; assay type: cell-based, human
Method: as §5, §6

**Q.** `C[C@@H]1COCCN1c1cc(-c2ccnn2C)c2ccnc(-c3ccn[nH]3)c2n1` [Elimusertib] was tested. Which Curve slope (PDO UME061) did it give?
**A.** Its Curve slope is 0.52 and 0.42 and 0.35 and 0.50 and 0.27 and 0.47.

**Q.** What about the EC50 (PDO UME061; Homo sapiens, read-out: EC50 mean) of the same compound?
**A.** The EC50 was 0.124 µM.

**Q.** And the Curve bottom (AsPC-1 cells [1])?
**A.** Its Curve bottom is 1.02 and 1.01.

**Q.** What about the Curve top (AsPC-1 cells [1]) of the same compound?
**A.** Its Curve top is 0.35 and 0.32 and 0.30 and 0.34 and 0.33 and 0.38 and 0.37 and 0.36.

**Q.** And the Response (AsPC-1 cells [1])?
**A.** Its Response is 1.16 and 1.13.

**Q.** And the EC50 (AsPC-1 cells [1]; ASPC1, 72 h, read-out: EC50 (cell growth))?
**A.** Its EC50 is 113 nM.

**Q.** And the EC50 (AsPC-1 cells [1]; ASPC1, 72 h, read-out: EC50 mean [nM])?
**A.** Its EC50 is 134 nM.

**Q.** And the EC50 (AsPC-1 cells [1]; ASPC1, read-out: EC50 mean [nM])?
**A.** Its EC50 is 134 nM.

**Q.** What about the Curve top (PDO UME053) of the same compound?
**A.** The Curve top was 1.13 and 0.99 and 1.07 and 1.15 and 1.00 and 0.79 and 1.11.

**Q.** What about the pEC50 (PDO UME053) of the same compound?
**A.** The pEC50 was 7.03.

**Q.** And the EC50 (PDO UME053; read-out: EC50 mean)?
**A.** Its EC50 is 123 nM.

**Q.** What about the EC50 (PDO UME053; read-out: EC50 mean [nM]) of the same compound?
**A.** Its EC50 is 123 nM.

**Q.** And the “improvement of EC50 upon combination with GEM” value (13 PDAC cell lines)?
**A.** The value was > 10 fold.

**Q.** And the “number of cell lines with synergy with GEM” value (13 PDAC cell lines)?
**A.** The value was 12 cell lines.

**Q.** What about the EC50_FC_GEM high (AsPC-1 cells [2]) of the same compound?
**A.** Its EC50_FC_GEM high is 271.98.

**Q.** What about the EC50_FC_GEM low (AsPC-1 cells [2]) of the same compound?
**A.** Its EC50_FC_GEM low is 31.19.

**Q.** And the EC50_log2FC_GEM high (AsPC-1 cells [2])?
**A.** The EC50_log2FC_GEM high was 8.09.

**Q.** And the EC50_log2FC_GEM low (AsPC-1 cells [2])?
**A.** The EC50_log2FC_GEM low was 4.96.

**Q.** What about the Synergy (AsPC-1 cells [2]) of the same compound?
**A.** Its Synergy is “TRUE”.

**Q.** And the any_comb_pEC50_greater6 (AsPC-1 cells [2])?
**A.** Its any_comb_pEC50_greater6 is “TRUE”.

**Q.** And the EC50 (AsPC-1 cells [2]; Homo sapiens, ASPC1, read-out: EC50 (viability))?
**A.** The EC50 was 0.058 µM.

**Q.** And the “PDOs significantly sensitized to GEM” value [3]?
**A.** The value was “five out of nine”.

**Q.** And the EC50 ([3]; Homo sapiens, read-out: EC50 (monotherapy))?
**A.** Its EC50 is 0.043 to 0.29 µM.

**Q.** What about the “Log2FC_mean (GEM+ATRi vs. GEM), CHEK1 pS468” value (p-sites in Capan-1 cells) of the same compound?
**A.** Its value is −4.5 log2.

**Q.** What about the “Log2FC_mean (GEM+ATRi vs. GEM), CHEK1 pS468” value (p-sites in Dan-G cells) of the same compound?
**A.** The value was −4.2 log2.

Source: paper PMC11876601 (Molecular Systems Biology, 2025)
